We go through 1 compound from patent US5468854A, “Characterization of specific drug receptors with fluorescent ligands” (Pharmaceutical Discovery Corporation, priority 1993, dated 1995).

For this assay, the system named is benzodiazepine receptors. Put plainly: BD 623 fluorescence quenching/dequenching assay in brain membranes. Conditions: large excess of benzodiazepine receptor ligands (flurazepam 100 μM); non-benzodiazepine receptor ligands 10 μM. The format is binding, rat (Sprague-Dawley).

`CC(C)(N)Cc1ccccc1` [phenteramine]: the “dequenching of BD 623 fluorescence” value is on record as “did not effect a dequenching of fluorescence”.
